Patent publication EP0383919A1, “STAUROSPORIN DERIVATIVES” (KYOWA HAKKO KOGYO CO., LTD., priority 1988, dated 1989)

Columns and labels:
CoLo 320DM cells = experiment: CoLo 320DM cell growth inhibition assay; assay type: cell-based; details: 50% cell growth inhibition concentration; cell counting with a microcell counter; tested form: free base; approx. 1:1 mixture of diaste
HeLa S3 cells = experiment: HeLa S3 cell growth inhibition assay; assay type: cell-based; details: 50% growth inhibition concentration; neutral red staining, absorbance at 550 nm; 72 hours incubation after washing; tested form: free base; approx. 1:1 mixture of diaste

Q: How did the “IC50 CoLo 320DM” value (CoLo 320DM cells) turn out when CCSC1NC(=O)c2c1c1c3ccccc3n3c1c1c2c2ccccc2n1C1CC(NC)C(OC)C3(C)O1 (centres unmarked) was run?
A: 0.088 µg/mL (≈ 0.167 µM)

Q: What about the “IC50 HeLa S3” value (HeLa S3 cells) of the same compound?
A: 0.16 µg/mL (≈ 0.304 µM)

≈ marks a conversion by molar mass, not a printed value.
